Protein sequences, listed by entry. Tags and fused reporters are not part of them.
UniProt P41146, whole entry: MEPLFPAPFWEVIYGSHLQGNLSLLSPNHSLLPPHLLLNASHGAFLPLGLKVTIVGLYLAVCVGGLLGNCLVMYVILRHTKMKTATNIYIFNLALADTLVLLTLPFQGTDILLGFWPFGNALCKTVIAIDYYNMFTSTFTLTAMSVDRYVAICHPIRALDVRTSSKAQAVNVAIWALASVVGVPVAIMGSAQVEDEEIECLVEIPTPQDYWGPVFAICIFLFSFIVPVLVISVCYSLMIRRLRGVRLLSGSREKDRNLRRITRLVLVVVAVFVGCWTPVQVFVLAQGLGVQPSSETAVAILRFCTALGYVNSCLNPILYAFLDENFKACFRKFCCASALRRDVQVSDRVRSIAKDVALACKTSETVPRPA

In ChEMBL document CHEMBL1148282, “A novel series of piperidin-4-yl-1,3-dihydroindol-2-ones as agonist and antagonist ligands at the nociceptin receptor” (2004):

What follows are molecules tested against Nociceptin receptor (Homo sapiens) (UniProt P41146) (assay: Percent stimulation of [35S]GTP-gamma-S, binding to human Nociceptin receptor in cell membranes was determined using cAMP assay).

| SMILES | Stimulation [%] |
| --- | --- |
| O=C1Cc2ccccc2N1C1CCN(C2C3CCCC2CCC3)CC1 (centres undefined) | 45 |

The molecules below were run against Nociceptin receptor (Homo sapiens) (UniProt P41146) (assay: Percent stimulation of [35S]GTP-gamma-S, binding to human Nociceptin receptor in cell membranes).

| SMILES | Stimulation [%] |
| --- | --- |
| CC(C)[C@H]1CC[C@H](N2CCC(N3C(=O)Cc4ccccc43)CC2)CC1 | 65 |
| O=C1Cc2ccccc2N1C1CCN(C2CCCCCCC2)CC1 | 59.1 |
| O=C1Cc2ccccc2N1C1CCN(C2CCc3ccccc3C2)CC1 (centres undefined) | 30.9 |
| CC(C)[C@H]1CC[C@@H](N2CCC(N3C(=O)Cc4ccccc43)CC2)CC1 | 100 |
| O=C1Cc2ccccc2N1C1CCN(Cc2ccccc2)CC1 | 18 |
| O=C1Cc2ccccc2N1C1CCN(C2CCCC3CCCCC32)CC1 (centres undefined) | 40 |
| O=C1Cc2ccccc2N1C1CCN(C2CCC3CCCCC3C2)CC1 (centres undefined) | 62 |
| O=C1Cc2ccccc2N1C1CCN(C2CCC3CCCC[C@@H]3C2)CC1 (some centres undefined) | 78 |
